Reference: patent US20260275319A1, “ARCHAEAL PEPTIDE RECOMBINASE – A NOVEL PEPTIDE LIGATING ENZYME” (MAX-PLANCK-GESELLSCHAFT ZUR FÖRDERUNG DER WISSENSCHAFTEN …, priority 2019, published 2026)
Where two headings read alike, the source gives them in different places.

Legend:
[1] = tested on: (15)KDPGA(10) and PGA(10F) substrates; settings: 100 nM enzyme, 15 μM substrates, 8 min, 85° C. (M. jannaschii variants) or 50° C. (M. mazei)
[2] = tested on: (15)KDPGA(10) and PGA(10F) substrates; settings: 15 μM substrates, 8 min, 80° C.
[3] = tested on: Strep-Ub-(5)KDPGA(10)-His6 and PGA(15)-Ub in E. coli cell lysates; experiment: Ligation of two recombinantly expressed substrates in cell lysates with single step purification; settings: 0.09 g/l enzyme, 15 min, 37° C.

Row | Molecule | ligase activity (fluorescent ligation product) [1] | ligase activity (fluorescent ligation product) ([1]; listed as N-terminally modified M. jannaschii Adriase) | ligase activity at low enzyme concentrations / standard assay conditions [2] | decrease of ligase activity compared to unmodified Adriase ([2]; 7-15000 nM enzyme) | substrate specificity in complex solutions [3]
1 | N-His: M. jannaschii Adriase variant lacking a free amino group at the active site serine (N-terminal His6-tag) (protein, listed as Methanocaldococcus jannaschii, N-terminal His6-tag; N-terminally modified M. jannaschii Adriase) MGSSHHHHHHSSGLVPRGSHMSLIICYYGKNGAVIGGDRRQIFFRGSEENRKILEEKLYSGEIKSEEELYKLAEKLNIKIIIEDDREKVRKISDSVVCGEVRSLGIDAKRRRVYATKGKCAIVDILNDTVTNQTIKEGFGIVVLGNRFLKKKAEEELKRTAKLFPMMPIQQIEDAIKEIFEKLKWHPTVSKEYDIYSVNKYEKNFEEVIKKDIESLFKYREQLRKQLIDFGKVMSIVNKIVKNGEIGVIKDGKLHLYDDYIAIDKIDPNPKVFKVVDVEGNFKDGDIVVIENGDMKIKGTNEKVTTKYIIIHK | no ligation product is observed | no transpeptidase activity | no activity | ~ 200 × | 
2 | M. mazei Adriase: Methanosarcina mazei Adriase (MM_2909), archaeal peptide recombinase, C-terminal His6-tag; Strep-, Myc-, HA-tagged versions used as pulldown bait (protein, C-terminal His6-tag; M. mazei Adriase with C-terminal His-tag, Methanosarcina mazei Adriase (MM_2909), archaeal peptide recombinase, C-terminal His6-tag; Strep-, Myc-, HA-tagged versions used as pulldown bait) TLVIAFIGKNGAVMAGDMREITFEGEKPDREKLEKELYSGSIVTDEEMQKKAEEFGVKITVADCKEKVSERNGVLVGEVSSAEGGVVKKRRLYASAGNFAIAELINTEMTLTSQGKGSNFIAFGNEFTKQVANKCFKDNWTKKSNLQDAVKILILCMETVARKTASVSKQFMIVQTASNADVLKVVEKDRNCGSHHHHHH |  |  |  |  | highly specific
